# Laboratory results reported in PubChem BioAssay AID440 (NMMLSC, 2006).
# Sequences of proteins named here, by UniProt entry; tags and fusion partners are left off.
# UniProt P21462, whole entry: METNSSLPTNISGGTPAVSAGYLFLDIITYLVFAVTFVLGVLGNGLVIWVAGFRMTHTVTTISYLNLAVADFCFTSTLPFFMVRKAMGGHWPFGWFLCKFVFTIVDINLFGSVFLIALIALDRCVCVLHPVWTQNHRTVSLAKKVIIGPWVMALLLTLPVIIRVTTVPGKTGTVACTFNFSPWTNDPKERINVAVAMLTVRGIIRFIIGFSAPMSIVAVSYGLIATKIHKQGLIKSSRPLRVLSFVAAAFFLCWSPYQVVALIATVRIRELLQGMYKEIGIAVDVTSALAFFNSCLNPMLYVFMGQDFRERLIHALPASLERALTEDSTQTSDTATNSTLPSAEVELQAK
# The list shows a part of the results, in another mix than the full data. Active and inactive are the calls of the source. Cut-off read from the data, not from the text of the source: active = inhibition above about 30%; inconclusive = no clear call, values can overlap the other calls; inactive = below that.
# Target: fMet-Leu-Phe receptor (Homo sapiens) (UniProt P21462)
# Assay: human FPR ligands by binding competition, primary screen, cell-based, FPRL1 counter-screen, flow cytometry (AID 440);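 note: 0% = buffer wells and 100% = receptor blocker peptide wells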
# Conditions: FPR-expressing cells, fluorescent ligand binding, stronger effect = higher value, concentration not given here
row,Structure (SMILES),inhibition
1,CP(=O)(Nc1ccc2c(c1)OCCO2)Oc1ccccc1 (centres undefined),inactive: -3.4%
2,Cc1ccccc1NP(C)(=O)Nc1ccccc1C,inactive: -5.1%
3,O=P(Nc1nccs1)(c1ccccc1)c1ccccc1,inactive: -2.7%
4,CN(C)CCOC(=O)C(O)(c1ccccc1)C1CCCCC1 (centres undefined),active: 46.3%
5,CCc1nc2c(n1)c1c(non1O)c1c2no[n+]1[O-],inactive: 3%
6,CP(=O)(Nc1ccccn1)Oc1ccccc1 (centres undefined),inactive: 0.3%
7,Cc1nc2ccc3ccccc3c2o1.O=[N+]([O-])c1cc([N+](=O)[O-])c(O)c([N+](=O)[O-])c1,inactive: 12.9%
8,COP1(=S)c2c(C)nn(CCC#N)c2N=C(c2ccc(F)cc2)N1C (centres undefined),inactive: -3.6%
9,O=C(COc1ccccc1)OC1CN2CCC1CC2 (centres undefined),inactive: -1.3%
10,CP(=S)(Nn1cnnc1)Oc1ccccc1 (centres undefined),inactive: -2.4%
11,Cc1nn(-c2ccccc2)c2c1P(=O)(N1CCOCC1)N(C)C(c1ccccc1)=N2 (centres undefined),inactive: -2.5%
12,Clc1n[nH]nc1-c1nn[nH][15n]1,inactive: 6%
13,Cc1ccc(C)c(NP(C)(=O)Oc2ccccc2)c1 (centres undefined),inactive: 0.6%
14,CCOP1(=S)c2c(C)nn(CCC#N)c2N=C(c2ccccc2F)N1C (centres undefined),inactive: -1.8%
